Data: PubChem BioAssay AID923 (National Center for Advancing Translational Sciences (NCATS), 2007)
Only a part is listed here, and it is no random draw. Active and inactive are the calls of the source. The call rests on the fitted dose curve; in most records, active means well fitted activation curve with a large enough effect; inconclusive means small, poorly fitted or top-dose-only effect; inactive means flat fitted curve, though single readings scatter.

Experiment: qHTS Assay for Allosteric/Competitive Inhibitors of Caspase-1: Spectroscopic Profiling in AFC Spectral Region; further: 0% is about no effect
Details: compound fluorescence, AFC spectral region (405/520 nm); at 57.5 µM (top of the series) unless noted

SMILES | fluorescence increase
COc1ccccc1OP(C)(=O)Nc1ccc(C)c(C)c1 (centres undefined) | inactive: -0.269%
C(Cc1nn[nH]n1)c1nn[nH]n1 | inactive: 3.41% [at 11.5 µM]
Cc1nc2ccc3ccccc3c2o1.O=[N+]([O-])c1cc([N+](=O)[O-])c(O)c([N+](=O)[O-])c1 | inactive: -1.53%
[N-]=[N+]=NCC(O)CN=[N+]=[N-] (centres undefined) | inactive: 2.53% [at 11.5 µM]
O=[N+]([O-])c1ccc(C[As](=O)(O)O)cc1 | inactive: -0.764% [at 11.5 µM]
CP(=O)(Nc1ccccn1)Oc1ccccc1 (centres undefined) | inactive: -0.965%
NCC[C@@H](N)CSP(=O)(O)O | inactive: 1.42% [at 11.5 µM]
Cc1c2non([O-])c-2c(C)[n+](=O)[n+]1[O-] | inactive: 0.391%
COc1ccccc1OP(C)(=O)Nc1c(C)n(C)n(-c2ccccc2)c1=O (centres undefined) | inactive: 4.13%
OCCSCCO | inactive: 1.89%
CP(=O)(Oc1ccccc1)N1CCOC1=O (centres undefined) | inactive: 2.84%
CCc1nc2c(n1)c1c(non1O)c1c2no[n+]1[O-] | inactive: -2.13%
N#[O+].[C-]#N.[C-]#N.[C-]#N.[C-]#N.[C-]#N.[Fe+2].[Na+].[Na+] | inactive: -0.72%
O=C(CO)Nc1ccc([As](=O)(O)O)cc1 | inactive: 5.06% [at 11.5 µM]
CN(C(=O)Cc1ccccc1)[C@@H]1CC[C@@]2(CCCO2)C[C@H]1N1CCCC1 | inactive: -2.94%
CN(C)CCOC(=O)C(O)(c1ccccc1)C1CCCCC1 (centres undefined) | inactive: 0.511%
[N-]=[N+]=Nc1ccc([As](=O)(O)O)cc1 | inactive: -0.842% [at 11.5 µM]
Cc1cc([N+](=O)[O-])cc([N+](=O)[O-])c1O | inactive: -3.76%
O=C(OC1CN2CCC1CC2)c1cccc(Cl)c1 (centres undefined) | inactive: 0.31%
Cc1c([N+](=O)[O-])cccc1[N+](=O)[O-] | inactive: 0.431%
Cc1ccc([N+](=O)[O-])c([N+](=O)[O-])c1 | inactive: -1.78%
CCOP(C)(=S)SCC(=O)NC(C)(CC)C(=O)O (centres undefined) | inactive: 2.01%
CCOP(=O)(CC)OCC | inactive: -0.662%
c1nnnn1CCn1cnnn1 | inactive: 0.0231%
O=P(Nc1nccs1)(c1ccccc1)c1ccccc1 | inactive: 3.03%
CCN(CCCl)Cc1ccccc1C | inactive: -2.39%
Cc1ccccc1NP(C)(=O)Nc1ccccc1C | inactive: 0.145%
C[C@@H](O)COc1ccc([As](=O)(O)O)cc1N | inactive: 4% [at 11.5 µM]
[NH4+].[O-][Cl+3]([O-])([O-])[O-] | inactive: 0.105%
